The test system of this assay is Plasmodium falciparum. The assay is described as follows: Inhibition of Plasmodium falciparum chitinase using 20 uM 4-methylumbelliferyl-N,N',N''-beta-chitotrioside as substrate at 10 uM after 10 mins by microplate reader analysis.

The source made the active and inactive calls. The rule behind the calls is not given here.

Consider `O=C(Nc1ccc(Oc2ccc(Cl)cc2)cc1)c1cc(I)cc(I)c1O`, for which the inhibition result is “inactive”.

These data come from ChEMBL document CHEMBL3297707, “Dual protonophore-chitinase inhibitors dramatically affect O. volvulus molting” (J Med Chem, 2014).
